Source: publication PMC3220788 (The Journal of steroid biochemistry and molecular biology, 2011)

Amino acid sequences for entries named in this document (tags omitted).
UniProt P03372, whole entry: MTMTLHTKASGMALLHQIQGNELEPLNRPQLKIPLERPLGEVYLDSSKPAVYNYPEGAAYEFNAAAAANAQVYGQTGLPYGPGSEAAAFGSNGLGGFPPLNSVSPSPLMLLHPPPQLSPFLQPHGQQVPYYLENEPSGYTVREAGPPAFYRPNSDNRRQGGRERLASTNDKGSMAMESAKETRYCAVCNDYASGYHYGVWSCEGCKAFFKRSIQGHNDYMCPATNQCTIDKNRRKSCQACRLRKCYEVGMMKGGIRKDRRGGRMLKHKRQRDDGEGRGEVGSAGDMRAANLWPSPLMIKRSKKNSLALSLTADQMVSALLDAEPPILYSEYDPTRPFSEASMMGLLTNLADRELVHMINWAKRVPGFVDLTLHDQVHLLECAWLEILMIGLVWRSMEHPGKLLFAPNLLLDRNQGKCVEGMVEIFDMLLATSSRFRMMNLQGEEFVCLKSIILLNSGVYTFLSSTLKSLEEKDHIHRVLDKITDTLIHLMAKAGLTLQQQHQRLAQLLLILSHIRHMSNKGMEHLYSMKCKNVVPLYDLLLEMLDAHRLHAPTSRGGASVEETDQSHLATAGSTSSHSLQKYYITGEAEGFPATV

Molecular target: ERα/β (Homo sapiens, UniProt P03372)
Experiment: ERE-GFP reporter activation/inhibition assay in MCF-7 cells
Conditions: data not shown

C[C@]12CC[C@@H]3c4ccc(O)cc4C[C@@H](CCCCCCCCC[S+]([O-])CCCC(F)(F)C(F)(F)F)[C@H]3[C@@H]1CC[C@@H]2O (stereo partly shown) [ICI182,780]
effect on GFP induction by E2 and G15 (coincubation): complete ablation
